Assay outcomes as filed in PubChem.
GLP1R ag: agonists of human GLP-1 receptor | P43220 | HEK293 GLP-1R CRE-luciferase, luminescence, 4-6 h; cells express a hypersensitive GLP-1R form | Potency, µM (top dose mostly 45.6 µM), usual class: activators | 380,000 tested, 0.007% active | AID 624172
GLP-1R inv ag: acts as inverse agonist at human GLP-1 receptor. HEK293 GLP-1R CRE-luciferase, luminescence, 24 h; GLP-1R form is constitutively active. P43220. 410,000 tested, 1.6% active. Potency, µM (series often up to 38.3 µM), usual class: inhibitors; note: nearly all actives have a fitted effect of over 55% in size
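Seeding at 200 cells/uL, 12 h culture, 24 hr compound treatment, then luciferase reagent and a luminescence read; cells are HEK293 stably expressing a constitutively active GLP-1R plus cAMP-responsive luciferase.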
Pin1 inh: human Pin1 inhibition; Pin1 FP peptide displacement, HiFluor488, 10 min; AID 504891; Q13526; Potency, µM (titrated, usually from 115 µM), actives largely listed as inhibitors; 390,000 tested, 0.009% active; active = well fitted inhibition curve with a large enough effect in the polarisation, with a control signal flat, not every such curve was filed as active; inconclusive = small, poorly fitted or top-dose-only effect, or effect the other way, or a change in a side signal; inactive = no such curve, though single readings can be large or run the other way; the % refers to the polarisation
HEK293 tox: cytotoxicity in counter-screen for GLP-1R inverse agonists; AID 624418; 410,000 tested, 0.13% active; HEK293 cAMP-luciferase reporter cells, luminescence, 24 h; Potency, µM (series often up to 38.3 µM), hits mostly inhibitors;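 note: loss of luciferase light is scored as toxicity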
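A 23 nL compound transfer followed 12 hours of cell culture at 37 deg C; exposure then lasted 24 hr. Luciferase assay detection reagent was dispensed and plates read for luminescence after a 12 min room-temperature wait.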
PTHR1 agonist: PTHR1 (human) receptor agonism. AID 743266. 410,000 tested, 0.075% active. HEK293 GP2 PTHR1 cells, GloSensor cAMP luminescence, 1 h. Potency, µM (series often up to 115 µM), actives largely listed as activators. Q03431; note: nearly all actives have a fitted effect of over 55% in size
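HEK-293-derived GP2 cells expressing PTHR1 and a GloSensor cAMP reporter, 3,000/well, plated overnight, given luciferin plus IBMX (each 0.5 mM as added) for 1 h at 37 °C, then compound for 1 h at 37 °C. Luminescence was read after 15 min at room temperature.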
miR-21 reporter: raises the signal of a miR-21 reporter; HeLa miR-21 FLuc reporter, luciferase, 48 h; Potency, µM (highest dose often 38.3 µM); 340,000 tested, under 10 active; active = well fitted rising curve with a large enough effect; inconclusive = small, poorly fitted or top-dose-only effect; inactive = no such curve, though single readings can be large or run the other way;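 also: miR-21 action dims this reporter so a rising signal means less miR-21 action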
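HeLa cells stably expressing CMV-driven firefly luciferase with a downstream miR-21 binding sequence, endogenously expressing miR-21, were treated with titrations (up to about 40uM final) for 48 hours at 37 degree Celsius. Luciferase luminescence was read after lysis.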
Hits are given with their value; i = inactive; ? = inconclusive; nt = no result given. In the library only some 1.7% were active in any assay of this set; here they are far more common. Unless noted, calls come from the whole dose curve; as a rule, active = well fitted curve in the direction sought with a large enough effect; inconclusive = small, poorly fitted or top-dose-only effect, or another doubt; inactive = no such curve, though single readings can be large; an effect the other way counts as inactive or inconclusive.

SMILES | GLP1R ag | GLP-1R inv ag | Pin1 inh | HEK293 tox | PTHR1 agonist | miR-21 reporter
COc1ccc2nc(NC(=O)c3nc(S(=O)(=O)Cc4cccc(C)c4)ncc3Cl)sc2c1 | nt | ? | ? | ? | i | ?
CN1CC[C@]23c4c5ccc(O)c4OC2C(O)CCC3[C@H]1C5 (stereo partly drawn) | i | nt | nt | nt | nt | nt
C[C@]12CC[C@H](O)C[C@H]1CC[C@@H]1[C@@H]2CC[C@]2(C)[C@@H](C3=CC(=O)OC3)CC[C@]12O | i | 0.5µM | i | ? | i | nt
CC12CCC(O)CC1CCC1C2CCC2(C)C(C3=CC(=O)OC3)CCC12O (stereo not drawn) | i | 1.1µM | i | ? | i | nt
CNCC[C@H](Oc1cccc2ccccc12)c1cccs1 | i | 11µM | i | i | i | ?
c1cc2n(c1)-c1c(ccc3c1OCO3)CNC2c1ccc2c(c1)OCO2 (stereo not drawn) | i | 8.9µM | i | i | i | i
N#CC1=C(N)NC(SCC(=O)Nc2ccc(Br)cc2)=C(C#N)C12CCCCC2 | i | 7.9µM | i | ? | i | i
N#CC1=C(N)NC(SCC(=O)c2ccccc2)=C(C#N)C12CCCC2 | i | i | i | i | i | i
O=C(Nc1ccc(Cl)c(C(F)(F)F)c1)NC1CC2CCCC(C1)N2Cc1ccccc1 (stereo not drawn) | i | 2.5µM | i | ? | i | ?
O=C(COc1ccc2ccccc2c1)N1CCN(Cc2c[nH]c3ccccc23)CC1 | i | 11µM | i | i | i | i
O=C(COc1ccc(Br)cc1)N1CCN(Cc2c[nH]c3ccccc23)CC1 | i | ? | i | i | i | i
COc1ccc(CN2CCN(C(=O)COc3ccc4ccccc4c3)CC2)c(OC)c1 | i | 10µM | i | i | i | i
CCN(CC)c1ccc(/C=N/NC(=O)CNC(=O)C2COc3ccccc3O2)c(O)c1 (stereo not drawn) | i | ? | i | ? | i | i
ClC1=C(Cl)[C@]2(Cl)[C@@H]3[C@@H]4C[C@@H]([C@H]5O[C@@H]45)[C@@H]3[C@@]1(Cl)C2(Cl)Cl | i | nt | nt | nt | nt | nt
COc1ccccc1CC(=O)Nc1ccc([N+](=O)[O-])cc1O | i | ? | i | ? | i | i
Cc1ccc(C2(c3ccc(C)cc3)CC2C(=O)Nc2ccc([N+](=O)[O-])cc2O)cc1 (stereo not drawn) | i | 4µM | i | ? | i | i
COc1ccc(OC)c2sc(N(CCCN(C)C)C(=O)CCS(=O)(=O)c3ccccc3)nc12 | i | ? | ? | 10µM | i | nt
CCc1ccccc1N1C(=O)N(Cc2ccccc2C)c2ccccc2S1(=O)=O | i | ? | i | i | i | i
CCc1ccc(-c2nc(CN3CCCC(C(=O)N4CCN(c5cc(Cl)ccc5C)CC4)C3)c(C)o2)cc1 (stereo not drawn) | nt | 4.5µM | i | ? | i | i
C=CCn1cccc(/C=C/C(=O)c2ccc(C(C)(C)C)cc2)c1=S | i | 13µM | i | ? | i | ?
Cc1ccc(C(=O)/C=C/c2ccccc2[N+](=O)[O-])cc1 | i | ? | ? | ? | i | i
O=C(Nc1ccc(Cl)c(C(F)(F)F)c1)c1ccc2c(c1)CCN2S(=O)(=O)c1ccccc1 | nt | 5µM | i | i | i | ?
COc1ccc(C(=O)NCCn2cc(SCc3ccc(C(F)(F)F)cc3)c3ccccc32)cc1OC | i | ? | ? | i | ? | ?
CN(C)CCCN(C(=O)CCc1ccccc1)c1nc2ccc(Br)cc2s1 | i | 6.3µM | i | ? | i | ?
O=C(Cn1c(=O)oc2cc(S(=O)(=O)N3CCCCCC3)ccc21)NCc1ccccc1Cl | nt | ? | i | i | i | i
SMILES | GLP1R ag | GLP-1R inv ag | Pin1 inh | HEK293 tox | PTHR1 agonist | miR-21 reporter
[2H]c1c([2H])c([2H])c(-c2nc(N3CCCCCC3)sc2C(=O)c2ccccc2)c([2H])c1[2H] | i | 2µM | ? | i | i | i
CN(C)CCN(CC1CCCN(Cc2ccccc2F)C1)C(=O)Cc1ccccc1F (stereo not drawn) | i | 10µM | i | i | i | i
COC(=O)C1=C(c2cccc(OCc3ccccc3)c2)C[C@@H]2CC[C@H]1N2C(=O)NCc1ccccc1 | i | i | i | ? | i | nt
COC(=O)C1=C(c2ccc(OCc3ccccc3)cc2)C[C@@H]2CC[C@H]1N2C(=O)NCc1ccc(C(C)(C)C)cc1 | i | 4.5µM | nt | i | i | nt
COC(=O)C1=C(c2cccc(OCc3ccccc3)c2)C[C@@H]2CC[C@H]1N2C(=O)NCc1cccc(C(F)(F)F)c1 | i | 11µM | i | i | i | nt
COC(=O)C1=C(c2ccc(F)cc2OCc2ccccc2)C[C@@H]2CC[C@H]1N2C(=O)NCc1ccccc1C(F)(F)F | i | 13µM | i | i | i | nt
COC(=O)C1=C(c2ccc(OCc3ccccc3)cc2)C[C@@H]2CC[C@H]1N2C(=O)NCc1ccccc1 | i | ? | i | i | i | nt
CCC(=O)OC1(c2ccccc2)CCN(C)CC1 | i | nt | nt | nt | nt | nt
O=C(Nc1ncccc1O)c1ccc(S(=O)(=O)NCc2ccco2)cc1 | i | i | nt | i | i | nt
O=Cc1c(C(=O)O)n(Cc2ccccc2F)c2ccccc12 | i | i | i | i | i | i
CC(C)n1c(/C=C/[C@H](O)C[C@H](O)CC(=O)O)c(-c2ccc(F)cc2)c2ccccc21 | i | 3.2µM | i | i | i | nt
CC(C)CCC(=O)OC1CCC2C3CCC4=CC(=O)CC[C@]4(C)C3CC[C@]12C (stereo partly drawn) | i | nt | nt | nt | nt | nt
Cc1ccccc1-n1c(C)nc2ccccc2c1=O | i | i | i | i | i | i
Cc1ccccc1-n1c(/C=C/c2c(C)[nH]c3ccccc23)nc2ccccc2c1=O | nt | 4µM | ? | i | i | ?
Cc1ccccc1-n1c(/C=C/c2ccc(N(C)C)cc2)nc2ccccc2c1=O | nt | 8.9µM | ? | i | i | i
O=C(Nc1ccc(Cl)c(Cl)c1)c1cccc(S(=O)(=O)NCc2cccnc2)c1 | i | 11µM | ? | ? | i | i
Cc1cccc(OP(N)(=O)Oc2cccc(C)c2C)c1C | i | 11µM | i | i | i | i
Cc1ccccc1OP(N)(=O)Oc1ccccc1C | i | i | i | i | i | i
COc1ccc(NC(=O)CN(c2ccc([N+](=O)[O-])cc2)S(=O)(=O)c2ccccc2)cc1 | i | 6.3µM | i | ? | i | i
CCc1c(C2(O)CCCCC2)[nH]c2ccc(C(F)(F)F)cc12 | i | 2.2µM | ? | ? | i | i
C[C@H]1[C@@H]2Cc3ccc(O)cc3[C@]1(C)CCN2C | i | nt | nt | nt | nt | nt
O=C1CC[C@@]2(O)C3Cc4ccc(O)c5c4C2(CCN3CC2CC2)[C@H]1O5 (stereo partly drawn) | i | nt | nt | nt | nt | nt
Cc1ccc(C(C#N)=Cc2ccc3c(c2)OCO3)cc1 | i | 10µM | nt | i | i | nt
